Molecular target: CYP2C9 (Homo sapiens, UniProt P11712)
Conditions: substrate 25 μM 7-methoxy-4-trifluoromethylcoumarin-3-acetic acid, 400 μg/mL CYP2C9 microsomal protein, 37° C., excitation 410 nm, emission 510 nm

By UniProt entry, the sequences of proteins in these tests, tags left out.
UniProt P11712, whole entry, species assumed: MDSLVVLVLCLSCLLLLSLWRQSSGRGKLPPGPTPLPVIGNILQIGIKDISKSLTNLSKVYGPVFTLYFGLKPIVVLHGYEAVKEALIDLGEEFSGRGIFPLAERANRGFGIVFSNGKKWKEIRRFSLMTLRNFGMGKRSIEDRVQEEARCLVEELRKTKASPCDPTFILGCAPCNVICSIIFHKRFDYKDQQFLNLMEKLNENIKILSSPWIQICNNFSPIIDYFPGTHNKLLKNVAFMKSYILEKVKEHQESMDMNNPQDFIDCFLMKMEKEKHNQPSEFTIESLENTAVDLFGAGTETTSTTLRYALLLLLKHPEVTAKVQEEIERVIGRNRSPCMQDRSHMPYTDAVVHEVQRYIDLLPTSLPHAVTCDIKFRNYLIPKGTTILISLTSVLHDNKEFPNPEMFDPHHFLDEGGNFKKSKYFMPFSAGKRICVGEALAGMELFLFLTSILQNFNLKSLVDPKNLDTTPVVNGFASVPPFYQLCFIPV

Q: sulphaphenazole was tested. Which IC50 did it give?
A: The IC50 was 290 nM.

Source: patent US6756209B1, “7-Alkoxycoumarins as CYP2C9 substrates and activity assay” (SmithKline Beecham p.l.c., priority 1998, dated 2004)
